Measurements as given in PubChem BioAssay (NCI).
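Results reflect a 48-hour exposure of cells in 96-well plates to compound at five concentrations. GI50 = concentration required for 50% inhibition of growth. At the TGI there is no net growth.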

Legend:
Test in all cases: inhibition of tumour cell growth, NCI panel, 48 h
T-47D breast = system: T-47D breast
OVCAR-8 ovarian = system: OVCAR-8 ovarian
LOX IMVI melanoma = system: LOX IMVI melanoma
OVCAR-3 ovarian = system: OVCAR-3 ovarian
SF-268 CNS = system: SF-268 CNS
OVCAR-4 ovarian = system: OVCAR-4 ovarian
KM12 colon = system: KM12 colon
SF-295 CNS = system: SF-295 CNS
COLO 205 colon = system: COLO 205 colon
OVCAR-5 ovarian = system: OVCAR-5 ovarian
SR leukemia = system: SR leukemia
NCI-H23 lung = system: NCI-H23 lung
MALME-3M melanoma = system: MALME-3M melanoma
RXF 393 renal = system: RXF 393 renal
SW-620 colon = system: SW-620 colon
HCT-15 colon = system: HCT-15 colon
NCI/ADR-RES ovarian = system: NCI/ADR-RES ovarian
HS 578T breast = system: HS 578T breast
EKVX NSCLC = system: EKVX NSCLC
PC-3 prostate = system: PC-3 prostate
CAKI-1 renal = system: CAKI-1 renal
NCI-H460 lung = system: NCI-H460 lung
SNB-19 CNS = system: SNB-19 CNS
HOP-92 NSCLC = system: HOP-92 NSCLC
NCI-H522 lung = system: NCI-H522 lung
HL-60(TB) leukemia = system: HL-60(TB) leukemia
MDA-N = system: MDA-N
SN12C renal = system: SN12C renal
U251 CNS = system: U251 CNS
SK-MEL-5 melanoma = system: SK-MEL-5 melanoma
K-562 leukemia = system: K-562 leukemia
MDA-MB-435 = system: MDA-MB-435
NCI-H226 lung = system: NCI-H226 lung
UACC-62 melanoma = system: UACC-62 melanoma
HCT-116 colon = system: HCT-116 colon
MDA-MB-231 breast = system: MDA-MB-231 breast
TK-10 renal = system: TK-10 renal
UO-31 renal = system: UO-31 renal
MOLT-4 leukemia = system: MOLT-4 leukemia
SK-OV-3 ovarian = system: SK-OV-3 ovarian
HT29 colon = system: HT29 colon
A498 renal = system: A498 renal
A549 NSCLC = system: A549 NSCLC
BT-549 breast = system: BT-549 breast
MCF7 breast = system: MCF7 breast
SNB-75 CNS = system: SNB-75 CNS
IGROV1 ovarian = system: IGROV1 ovarian
786-0 renal = system: 786-0 renal
ACHN renal = system: ACHN renal
RPMI-8226 leukemia = system: RPMI-8226 leukemia
M14 melanoma = system: M14 melanoma
UACC-257 melanoma = system: UACC-257 melanoma
DU-145 prostate = system: DU-145 prostate
CCRF-CEM leukemia = system: CCRF-CEM leukemia
SK-MEL-28 melanoma = system: SK-MEL-28 melanoma
SF-539 CNS = system: SF-539 CNS
SK-MEL-2 melanoma = system: SK-MEL-2 melanoma
HOP-62 NSCLC = system: HOP-62 NSCLC
NCI-H322M lung = system: NCI-H322M lung

With `COc1ccc(C[N+](C)(CCCl)CCCl)c([N+](=O)[O-])c1` the GI50 (T-47D breast) was 90.7 µM, the TGI (T-47D breast) was over 100 µM and the TGI (OVCAR-8 ovarian) was over 100 µM. It also gave a TGI (LOX IMVI melanoma) of over 100 µM, a TGI (OVCAR-3 ovarian) of over 100 µM and a TGI (SF-268 CNS) of over 100 µM. It also gave a TGI (OVCAR-4 ovarian) of over 100 µM, a TGI (KM12 colon) of over 100 µM and a TGI (SF-295 CNS) of over 100 µM. The TGI (COLO 205 colon) was over 100 µM, the TGI (OVCAR-5 ovarian) was over 100 µM and the TGI (SR leukemia) was over 100 µM. The TGI (NCI-H23 lung) was over 100 µM, the TGI (MALME-3M melanoma) was over 100 µM and the TGI (RXF 393 renal) was over 100 µM. The TGI (SW-620 colon) was over 100 µM, the TGI (HCT-15 colon) was over 100 µM and the TGI (NCI/ADR-RES ovarian) was over 100 µM. The TGI (HS 578T breast) was over 100 µM, the TGI (EKVX NSCLC) was over 100 µM and the TGI (PC-3 prostate) was over 100 µM. The GI50 (CAKI-1 renal) was 63.9 µM, the TGI (CAKI-1 renal) was over 100 µM and the TGI (NCI-H460 lung) was over 100 µM. It also gave a TGI (SNB-19 CNS) of over 100 µM, a TGI (HOP-92 NSCLC) of over 100 µM and a TGI (NCI-H522 lung) of over 100 µM. The TGI (HL-60(TB) leukemia) was over 100 µM, the TGI (MDA-N) was over 100 µM and the TGI (SN12C renal) was over 100 µM. For the same molecule, the TGI (U251 CNS) was over 100 µM, the GI50 (SK-MEL-5 melanoma) was 27.8 µM and the TGI (SK-MEL-5 melanoma) was over 100 µM. The TGI (K-562 leukemia) was over 100 µM, the TGI (MDA-MB-435) was over 100 µM and the TGI (NCI-H226 lung) was over 100 µM. For the same molecule, the TGI (UACC-62 melanoma) was over 100 µM, the TGI (HCT-116 colon) was over 100 µM and the TGI (MDA-MB-231 breast) was over 100 µM. The TGI (TK-10 renal) was over 100 µM, the TGI (UO-31 renal) was over 100 µM and the GI50 (MOLT-4 leukemia) was 40.4 µM. For the same molecule, the TGI (MOLT-4 leukemia) was over 100 µM, the TGI (SK-OV-3 ovarian) was over 100 µM and the TGI (HT29 colon) was over 100 µM. The TGI (A498 renal) was over 100 µM, the TGI (A549 NSCLC) was over 100 µM and the TGI (BT-549 breast) was over 100 µM. The TGI (MCF7 breast) was over 100 µM, the TGI (SNB-75 CNS) was over 100 µM and the TGI (IGROV1 ovarian) was over 100 µM. It also gave a TGI (786-0 renal) of over 100 µM, a TGI (ACHN renal) of over 100 µM and a TGI (RPMI-8226 leukemia) of over 100 µM. The TGI (M14 melanoma) was over 100 µM, the TGI (UACC-257 melanoma) was over 100 µM and the TGI (DU-145 prostate) was over 100 µM. For the same molecule, the TGI (CCRF-CEM leukemia) was over 100 µM, the TGI (SK-MEL-28 melanoma) was over 100 µM and the TGI (SF-539 CNS) was over 100 µM. For the same molecule, the TGI (SK-MEL-2 melanoma) was over 100 µM, the TGI (HOP-62 NSCLC) was over 100 µM and the TGI (NCI-H322M lung) was over 100 µM.
